What all share (format): cell-based
For assay [1], the target named is 5'-AMP-activated protein kinase catalytic subunit alpha-1 (Homo sapiens) (UniProt Q13131). As to the kind of experiment: Effect on AMPK alpha1 at T183 phosphorylation level in human NCI-H1975 incubated for 12 hrs by human phosphokinase proteome profiler array relative to control.
Assay [2] deals with Cellular tumor antigen p53 (Homo sapiens) (UniProt P04637). The experiment in a line: Effect on p53 at S15 phosphorylation level in human NCI-H1975 incubated for 12 hrs by human phosphokinase proteome profiler array relative to beta-catenin.
For assay [3], the target named is Cyclin-dependent kinase inhibitor 1B (Homo sapiens) (UniProt P46527). As to the kind of experiment: Effect on p27 at T198 phosphorylation level in human NCI-H1975 incubated for 12 hrs by human phosphokinase proteome profiler array relative to beta-catenin.
Assay [4] has as its target Serine/threonine-protein kinase mTOR (Homo sapiens) (UniProt P42345). As to the kind of experiment: Effect on mTOR at S2448 phosphorylation level in human NCI-H1975 incubated for 12 hrs by human phosphokinase proteome profiler array relative to beta-catenin.
Assay [5] has as its target Tyrosine-protein kinase Fyn (Homo sapiens) (UniProt P06241). As to the kind of experiment: Effect on FYN at Y420 phosphorylation level in human NCI-H1975 incubated for 12 hrs by human phosphokinase proteome profiler array relative to beta-catenin.
Assay [6] addresses Proto-oncogene tyrosine-protein kinase Src (Homo sapiens) (UniProt P12931). The experiment in a line: Effect on SRC at Y419 phosphorylation level in human NCI-H1975 incubated for 12 hrs by human phosphokinase proteome profiler array relative to beta-catenin.
The target in assay [7] is Tyrosine-protein kinase Fyn (Homo sapiens) (UniProt P06241). As to the kind of experiment: Effect on FYN at Y420 phosphorylation level in human NCI-H1975 incubated for 12 hrs by human phosphokinase proteome profiler array relative to control.
Assay [8] deals with T1, Signal transducer and activator of transcription 5B (Homo sapiens) (UniProt P51692).
T1 sequence (whole entry): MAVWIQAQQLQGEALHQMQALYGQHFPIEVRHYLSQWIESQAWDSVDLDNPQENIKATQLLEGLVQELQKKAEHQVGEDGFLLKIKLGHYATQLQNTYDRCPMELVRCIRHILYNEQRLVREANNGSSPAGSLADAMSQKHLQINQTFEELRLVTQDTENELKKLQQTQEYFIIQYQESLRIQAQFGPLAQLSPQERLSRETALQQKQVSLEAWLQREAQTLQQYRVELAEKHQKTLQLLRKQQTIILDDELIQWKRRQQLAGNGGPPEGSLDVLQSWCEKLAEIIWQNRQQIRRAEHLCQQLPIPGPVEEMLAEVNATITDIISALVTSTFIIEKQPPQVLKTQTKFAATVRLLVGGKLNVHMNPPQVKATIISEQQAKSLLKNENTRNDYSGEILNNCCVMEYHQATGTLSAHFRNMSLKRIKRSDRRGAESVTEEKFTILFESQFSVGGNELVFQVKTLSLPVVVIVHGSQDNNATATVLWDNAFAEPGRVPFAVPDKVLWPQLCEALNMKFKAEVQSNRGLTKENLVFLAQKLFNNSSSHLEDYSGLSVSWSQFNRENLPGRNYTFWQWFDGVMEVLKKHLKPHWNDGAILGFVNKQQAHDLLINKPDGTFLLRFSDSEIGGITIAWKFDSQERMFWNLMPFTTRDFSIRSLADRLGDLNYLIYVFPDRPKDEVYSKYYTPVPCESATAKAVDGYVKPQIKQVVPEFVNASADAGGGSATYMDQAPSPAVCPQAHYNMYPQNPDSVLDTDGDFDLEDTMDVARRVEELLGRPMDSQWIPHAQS
The experiment in a line: Effect on STAT5b at Y699 phosphorylation level in human NCI-H1975 incubated for 12 hrs by human phosphokinase proteome profiler array relative to control.

By UniProt entry, the sequences of proteins in these tests, tags left out. Where a name states a change or a piece, a line headed by the entry shows the natural chain unless it says otherwise.
UniProt Q13131: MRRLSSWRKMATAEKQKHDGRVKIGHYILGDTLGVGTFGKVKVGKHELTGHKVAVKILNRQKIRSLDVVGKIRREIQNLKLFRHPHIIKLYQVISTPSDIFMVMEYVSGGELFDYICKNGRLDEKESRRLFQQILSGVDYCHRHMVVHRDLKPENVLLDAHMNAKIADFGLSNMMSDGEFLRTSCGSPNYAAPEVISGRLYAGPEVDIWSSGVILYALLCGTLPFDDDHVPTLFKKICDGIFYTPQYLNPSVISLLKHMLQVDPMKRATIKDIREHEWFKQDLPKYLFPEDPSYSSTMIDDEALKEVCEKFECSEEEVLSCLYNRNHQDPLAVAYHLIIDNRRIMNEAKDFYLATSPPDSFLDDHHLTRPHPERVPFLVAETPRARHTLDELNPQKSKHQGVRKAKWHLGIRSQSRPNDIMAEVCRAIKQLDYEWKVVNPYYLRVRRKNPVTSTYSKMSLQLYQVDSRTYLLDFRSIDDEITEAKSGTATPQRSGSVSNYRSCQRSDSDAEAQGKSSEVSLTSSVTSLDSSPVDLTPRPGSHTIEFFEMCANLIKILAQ
UniProt P04637, whole entry, looked up: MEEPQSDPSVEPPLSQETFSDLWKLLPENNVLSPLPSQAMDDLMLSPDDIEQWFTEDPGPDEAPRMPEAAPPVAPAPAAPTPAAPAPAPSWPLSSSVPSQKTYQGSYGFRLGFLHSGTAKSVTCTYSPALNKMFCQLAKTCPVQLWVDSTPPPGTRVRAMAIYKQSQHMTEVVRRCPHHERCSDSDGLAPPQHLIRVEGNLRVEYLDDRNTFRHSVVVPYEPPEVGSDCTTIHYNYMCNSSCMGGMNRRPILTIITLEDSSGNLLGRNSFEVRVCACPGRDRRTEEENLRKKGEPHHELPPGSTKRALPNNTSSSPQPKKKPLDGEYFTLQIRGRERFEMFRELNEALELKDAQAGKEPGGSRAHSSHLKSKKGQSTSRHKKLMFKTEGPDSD
UniProt P46527, whole entry: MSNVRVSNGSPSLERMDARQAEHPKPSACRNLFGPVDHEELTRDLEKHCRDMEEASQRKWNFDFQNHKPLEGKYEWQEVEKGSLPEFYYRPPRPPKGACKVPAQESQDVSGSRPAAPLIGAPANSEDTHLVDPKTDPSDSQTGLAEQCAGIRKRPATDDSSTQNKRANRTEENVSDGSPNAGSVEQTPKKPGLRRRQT
UniProt P06241, whole entry, looked up: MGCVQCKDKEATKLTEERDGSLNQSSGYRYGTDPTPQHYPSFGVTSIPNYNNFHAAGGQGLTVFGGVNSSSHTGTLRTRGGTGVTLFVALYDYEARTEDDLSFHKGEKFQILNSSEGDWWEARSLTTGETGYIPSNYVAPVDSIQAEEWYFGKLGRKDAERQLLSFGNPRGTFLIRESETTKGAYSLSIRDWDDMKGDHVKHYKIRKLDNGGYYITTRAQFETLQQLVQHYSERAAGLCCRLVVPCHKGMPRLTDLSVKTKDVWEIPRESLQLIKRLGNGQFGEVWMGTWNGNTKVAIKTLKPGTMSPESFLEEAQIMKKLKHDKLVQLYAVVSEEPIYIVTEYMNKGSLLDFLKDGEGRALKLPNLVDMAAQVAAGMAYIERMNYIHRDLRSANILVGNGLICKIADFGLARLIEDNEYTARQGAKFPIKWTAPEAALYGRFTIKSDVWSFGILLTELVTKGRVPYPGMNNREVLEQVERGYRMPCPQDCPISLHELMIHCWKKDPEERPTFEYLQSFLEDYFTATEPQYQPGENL
UniProt P08631: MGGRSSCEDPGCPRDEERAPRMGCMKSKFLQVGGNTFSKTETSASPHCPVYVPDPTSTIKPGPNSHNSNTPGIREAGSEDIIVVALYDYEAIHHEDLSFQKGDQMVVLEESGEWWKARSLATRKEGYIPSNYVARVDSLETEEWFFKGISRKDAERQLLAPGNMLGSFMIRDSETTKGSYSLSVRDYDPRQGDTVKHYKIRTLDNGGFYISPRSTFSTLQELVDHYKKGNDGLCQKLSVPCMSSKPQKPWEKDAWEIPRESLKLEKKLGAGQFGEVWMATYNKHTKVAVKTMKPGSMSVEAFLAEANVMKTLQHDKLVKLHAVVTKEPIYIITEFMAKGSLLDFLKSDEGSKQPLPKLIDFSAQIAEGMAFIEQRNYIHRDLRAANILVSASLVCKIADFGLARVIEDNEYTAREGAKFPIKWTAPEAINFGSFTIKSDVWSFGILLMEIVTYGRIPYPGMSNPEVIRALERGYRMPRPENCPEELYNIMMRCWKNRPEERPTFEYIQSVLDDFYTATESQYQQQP
UniProt P23443: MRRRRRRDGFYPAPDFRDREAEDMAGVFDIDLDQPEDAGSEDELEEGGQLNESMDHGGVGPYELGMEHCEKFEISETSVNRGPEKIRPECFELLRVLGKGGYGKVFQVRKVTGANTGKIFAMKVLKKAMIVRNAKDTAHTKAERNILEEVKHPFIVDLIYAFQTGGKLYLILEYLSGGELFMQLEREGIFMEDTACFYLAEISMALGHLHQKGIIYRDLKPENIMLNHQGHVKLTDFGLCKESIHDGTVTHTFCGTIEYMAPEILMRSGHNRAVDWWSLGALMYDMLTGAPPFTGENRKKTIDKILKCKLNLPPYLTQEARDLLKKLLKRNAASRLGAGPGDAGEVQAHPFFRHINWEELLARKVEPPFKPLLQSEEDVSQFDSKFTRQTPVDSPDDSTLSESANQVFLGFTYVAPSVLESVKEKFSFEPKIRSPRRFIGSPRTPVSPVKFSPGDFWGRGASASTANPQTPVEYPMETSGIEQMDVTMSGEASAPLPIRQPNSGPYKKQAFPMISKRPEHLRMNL
UniProt Q16539, whole entry: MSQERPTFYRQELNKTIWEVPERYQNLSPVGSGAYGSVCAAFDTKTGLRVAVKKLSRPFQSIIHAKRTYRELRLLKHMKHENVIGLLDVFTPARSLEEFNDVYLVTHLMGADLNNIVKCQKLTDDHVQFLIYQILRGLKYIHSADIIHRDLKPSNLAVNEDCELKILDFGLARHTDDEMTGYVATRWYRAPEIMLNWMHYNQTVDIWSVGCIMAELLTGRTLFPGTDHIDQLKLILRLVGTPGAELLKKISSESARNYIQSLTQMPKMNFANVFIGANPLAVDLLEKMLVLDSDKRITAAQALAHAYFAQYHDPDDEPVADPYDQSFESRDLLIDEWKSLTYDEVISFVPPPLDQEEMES

In assay [9] the target is Tyrosine-protein kinase HCK (Homo sapiens) (UniProt P08631). The experiment in a line: Effect on Hck at Y411 phosphorylation level in human NCI-H1975 incubated for 12 hrs by human phosphokinase proteome profiler array relative to beta-catenin.
Assay [10] deals with Tyrosine-protein kinase Fgr (Homo sapiens) (UniProt P09769). As to the kind of experiment: Effect on FGR at Y412 phosphorylation level in human NCI-H1975 incubated for 12 hrs by human phosphokinase proteome profiler array relative to control.
Assay [11] has as its target T2, Signal transducer and activator of transcription 6 (Homo sapiens) (UniProt P42226).
T2 sequence (whole entry): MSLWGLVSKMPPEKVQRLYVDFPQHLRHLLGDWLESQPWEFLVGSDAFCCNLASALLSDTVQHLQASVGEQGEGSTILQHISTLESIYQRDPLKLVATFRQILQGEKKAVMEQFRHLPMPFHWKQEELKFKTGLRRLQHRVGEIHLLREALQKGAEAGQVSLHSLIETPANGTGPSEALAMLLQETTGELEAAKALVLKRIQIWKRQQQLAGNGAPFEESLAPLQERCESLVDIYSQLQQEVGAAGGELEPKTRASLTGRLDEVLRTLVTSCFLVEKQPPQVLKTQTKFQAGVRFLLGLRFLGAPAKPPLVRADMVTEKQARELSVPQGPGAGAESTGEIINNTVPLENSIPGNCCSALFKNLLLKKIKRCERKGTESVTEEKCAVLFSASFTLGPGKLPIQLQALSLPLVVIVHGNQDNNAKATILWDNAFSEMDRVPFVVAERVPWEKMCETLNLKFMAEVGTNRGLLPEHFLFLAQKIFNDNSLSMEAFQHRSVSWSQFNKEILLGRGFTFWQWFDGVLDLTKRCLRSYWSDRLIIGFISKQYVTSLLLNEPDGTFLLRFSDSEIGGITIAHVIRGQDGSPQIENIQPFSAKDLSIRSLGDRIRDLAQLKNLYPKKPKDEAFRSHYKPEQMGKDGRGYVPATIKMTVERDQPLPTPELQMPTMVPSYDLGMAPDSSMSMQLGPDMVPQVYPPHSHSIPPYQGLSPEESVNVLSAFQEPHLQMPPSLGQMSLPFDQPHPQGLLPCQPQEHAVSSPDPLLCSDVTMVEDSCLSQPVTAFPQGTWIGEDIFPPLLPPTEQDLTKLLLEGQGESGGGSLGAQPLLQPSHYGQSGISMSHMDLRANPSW
As to the kind of experiment: Effect on STAT6 at Y641 phosphorylation level in human NCI-H1975 incubated for 12 hrs by human phosphokinase proteome profiler array relative to control.

Assay [12] has as its target Proto-oncogene tyrosine-protein kinase Src (Homo sapiens) (UniProt P12931). The experiment in a line: Effect on SRC at Y419 phosphorylation level in human NCI-H1975 incubated for 12 hrs by human phosphokinase proteome profiler array relative to control.
The target in assay [13] is 5'-AMP-activated protein kinase catalytic subunit alpha-1 (Homo sapiens) (UniProt Q13131). The experiment in a line: Effect on AMPK alpha1 at T183 phosphorylation level in human NCI-H1975 incubated for 12 hrs by human phosphokinase proteome profiler array relative to beta-catenin.
The target in assay [14] is Ribosomal protein S6 kinase beta-1 (Homo sapiens) (UniProt P23443). The experiment in a line: Effect on p70S6 Kinase at T421/S424 phosphorylation level in human NCI-H1975 incubated for 12 hrs by human phosphokinase proteome profiler array relative to control.
The target of assay [15] is Mitogen-activated protein kinase 14 (Homo sapiens) (UniProt Q16539). The experiment in a line: Effect on p38alpha at T180/Y182 phosphorylation level in human NCI-H1975 incubated for 12 hrs by human phosphokinase proteome profiler array relative to beta-catenin.

As for `CCOc1ccc(-c2nc(/C(N)=N/O)c3[nH]c(=O)n(-c4ccccc4OC)c3n2)cc1`, the fold change (FC) is 0.89 in assay [1]; 1.6 in assay [2]; 1.93 in assay [3]; 1.01 in assay [4]; 0.88 in assay [5]; 0.75 in assay [6]. Also, the fold change (FC) was found to be 0.75 in [7]; 0.87 in assay [8]; 0.78 in assay [9]; 1.01 in assay [10]; 0.84 in [11]; 0.64 in assay [12]. Further, the results for the fold change (FC) in [13], in [14] and in assay [15] were 1.04, 1.45 and 1.21, respectively.
Regarding `CCOc1ccc(-c2nc(C(=O)NO)c3[nH]c(=O)n(-c4ccccc4OC)c3n2)cc1`, the fold change (FC) in [1] turned out to be 0.92; in assay [2] it was 0.93; in assay [3], 1.96; in [4], 0.82; in assay [5] it was 0.9; in [6], 0.68. The fold change (FC) came to 0.8 in assay [7]; 0.78 in assay [8]; 0.84 in assay [9]; 0.32 in assay [10]; 1.2 in [11]; 0.61 in assay [12]. In addition, the fold change (FC) turned out to be 1.03 in assay [13], 0.92 in assay [14] and 0.92 in [15].

(Values after ChEMBL document CHEMBL4359863, “Structure-guided development of purine amide, hydroxamate, and amidoxime for the inhibition of non-small cell lung cancer” (Eur J Med Chem, 2019).)
